The results in this text go back to patent US11834432B2, “Substituted amino six-membered nitric heterocyclic ring compound and preparation and use thereof” (SHANGHAI INSTITUTE OF MATERIA MEDICA, CHINESE ACADEMY OF …, priority 2016, dated 2023).

Chains of the proteins cited; added tags and fusions are not shown. Residues count along the entry.
UniProt P11362, 478-767 limits assumed: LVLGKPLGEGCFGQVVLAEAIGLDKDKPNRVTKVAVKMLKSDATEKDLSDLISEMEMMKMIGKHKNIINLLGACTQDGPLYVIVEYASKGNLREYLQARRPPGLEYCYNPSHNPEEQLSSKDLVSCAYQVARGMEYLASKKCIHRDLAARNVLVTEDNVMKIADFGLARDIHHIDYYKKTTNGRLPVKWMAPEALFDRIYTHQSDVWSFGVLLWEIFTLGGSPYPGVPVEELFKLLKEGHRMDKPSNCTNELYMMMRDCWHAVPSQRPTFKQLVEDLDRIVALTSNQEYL

Several values for one entry are separate records, joined by “and”; a condition that tells them apart may be missing. Equal entries are not always repeated.

Assay [1] addresses FGFR1 kinase domain recombinant protein (Homo sapiens (Human), UniProt P11362). Description: Inhibition of receptor tyrosine kinase FGFR1 activity (ELISA). Format: biochemical.
A further assay concerns SNU16 cells. The assay is described as follows: Inhibition of proliferation of SNU16 cells (CCK-8). To be noted: 72 h.

By IC50 is commonly meant the midpoint of a concentration-inhibition curve.

As for `C=CC(=O)Nc1ccc(C(=O)Nc2cc(Oc3ccc4c(C(=O)NC)cccc4c3)ccn2)cc1`, the IC50 in assay [1] was under 100 nM. The “Inhibition ratio (%) @ 0.1 μM” value in assay [1] was found to be 78%. Also, the “Inhibition ratio (%)” value was 27.8% and 24.6% in the assay on SNU16 cells (10 nM); 28.5% and 25.9% in the assay on SNU16 cells (100 nM); 43.5% and 38.9% with SNU16 cells (1000 nM).
For `C=CC(=O)Nc1cccc(C(=O)Nc2cc(Oc3ccc4c(C(=O)NC)cccc4c3)ccn2)c1`, in assay [1], the IC50 was under 100 nM and the “Inhibition ratio (%) @ 0.1 μM” value is reported as 84%.
